The assay has as its target HA-tagged PA of FluA (Influenza A virus, UniProt Q2VC91). Kind of assay: biochemical. In kind it is binding.
What is called IC50 is the midpoint of a concentration-inhibition curve. `CSCC[C@H](N)C(=O)N[C@@H](CC(=O)O)C(=O)N[C@H](C(=O)N[C@@H](CC(N)=O)C(=O)N1CCC[C@H]1C(=O)N[C@H](C(=O)N[C@@H](CC(C)C)C(=O)N[C@@H](CC(C)C)C(=O)N[C@@H](Cc1ccccc1)C(=O)N[C@@H](CC(C)C)C(=O)N[C@@H](CCCCN)C(=O)N[C@H](C(=O)N1CCC[C@H]1C(=O)N[C@@H](C)C(N)=O)C(C)C)[C@@H](C)O)C(C)C` [1–14] registered a half-maximal inhibitory concentration (IC50) of 34.5 nM.

Take `CSCC[C@H](N)C(=O)N[C@@H](CC(=O)O)C(=O)N[C@H](C(=O)N[C@@H](CC(N)=O)C(=O)N1CCC[C@H]1C(=O)N[C@H](C(=O)N[C@@H](CC(C)C)C(=O)N[C@@H](CC(C)C)C(=O)N[C@@H](Cc1ccccc1)C(=O)N[C@@H](CC(C)C)C(=O)N[C@@H](CCCCN)C(=O)N[C@H](C(=O)N1CCC[C@H]1C(=O)N[C@@H](C)C(=O)N[C@@H](CCC(N)=O)C(=O)N[C@@H](CC(N)=O)C(N)=O)C(C)C)[C@@H](C)O)C(C)C` [1–16]: the half-inhibitory concentration (IC50) is 45.9 nM.

With `CSCC[C@H](N)C(=O)N[C@@H](CC(=O)O)C(=O)N[C@H](C(=O)N[C@@H](CC(N)=O)C(=O)N1CCC[C@H]1C(=O)N[C@H](C(=O)N[C@@H](CC(C)C)C(=O)N[C@@H](CC(C)C)C(=O)N[C@@H](Cc1ccccc1)C(=O)N[C@@H](CC(C)C)C(=O)N[C@@H](CCCCN)C(=O)N[C@H](C(=O)N1CCC[C@H]1C(N)=O)C(C)C)[C@@H](C)O)C(C)C` [1–13], the half-maximal inhibitory concentration (IC50) worked out at 138 nM.

For the compound `CC[C@H](C)[C@H](NC(=O)[C@H](C)NC(=O)[C@H](CC(N)=O)NC(=O)[C@H](CCC(N)=O)NC(=O)[C@H](C)NC(=O)[C@@H]1CCCN1C(=O)[C@@H](NC(=O)[C@H](CCCCN)NC(=O)[C@H](CC(C)C)NC(=O)[C@H](Cc1ccccc1)NC(=O)[C@H](CC(C)C)NC(=O)[C@H](CC(C)C)NC(=O)[C@@H](NC(=O)[C@@H]1CCCN1)[C@@H](C)O)C(C)C)C(=O)N[C@@H](CO)C(=O)N[C@H](C(=O)N[C@H](C(=O)N[C@@H](Cc1ccccc1)C(=O)N1CCC[C@H]1C(=O)N[C@@H](Cc1ccc(O)cc1)C(=O)N[C@H](C(N)=O)[C@@H](C)O)[C@@H](C)O)[C@@H](C)O` [5–25], the IC50 was determined as 483 nM.

Turning to `CC[C@H](C)[C@H](NC(=O)[C@H](C)NC(=O)[C@H](CC(N)=O)NC(=O)[C@H](CCC(N)=O)NC(=O)[C@H](C)NC(=O)[C@@H]1CCCN1C(=O)[C@@H](NC(=O)[C@H](CCCCN)NC(=O)[C@H](CC(C)C)NC(=O)[C@H](Cc1ccccc1)NC(=O)[C@H](CC(C)C)NC(=O)[C@H](CC(C)C)NC(=O)[C@@H](NC(=O)[C@@H]1CCCN1C(=O)[C@H](CC(N)=O)NC(=O)[C@@H](N)C(C)C)[C@@H](C)O)C(C)C)C(=O)N[C@@H](CO)C(=O)N[C@H](C(=O)N[C@H](C(=O)N[C@@H](Cc1ccccc1)C(=O)N1CCC[C@H]1C(=O)N[C@@H](Cc1ccc(O)cc1)C(=O)N[C@H](C(N)=O)[C@@H](C)O)[C@@H](C)O)[C@@H](C)O` [3–25], the IC50 amounted to 662 nM.

In the case of `CC[C@H](C)[C@H](NC(=O)[C@H](C)NC(=O)[C@H](CC(N)=O)NC(=O)[C@H](CCC(N)=O)NC(=O)[C@H](C)NC(=O)[C@@H]1CCCN1C(=O)[C@@H](NC(=O)[C@H](CCCCN)NC(=O)[C@H](CC(C)C)NC(=O)[C@H](Cc1ccccc1)NC(=O)[C@H](CC(C)C)NC(=O)[C@H](CC(C)C)NC(=O)[C@@H](NC(=O)[C@@H]1CCCN1C(=O)[C@H](CC(N)=O)NC(=O)[C@@H](NC(=O)[C@H](CC(=O)O)NC(=O)[C@@H](N)CCSC)C(C)C)[C@@H](C)O)C(C)C)C(=O)N[C@@H](CO)C(=O)N[C@H](C(N)=O)[C@@H](C)O` [1–20], the IC50 stood at 33.8 nM.

For the compound `CSCC[C@H](N)C(=O)N[C@@H](CC(=O)O)C(=O)N[C@H](C(=O)N[C@@H](CC(N)=O)C(=O)N1CCC[C@H]1C(=O)N[C@H](C(=O)N[C@@H](CC(C)C)C(=O)N[C@@H](CC(C)C)C(=O)N[C@@H](Cc1ccccc1)C(=O)N[C@@H](CC(C)C)C(=O)N[C@@H](CCCCN)C(=O)N[C@H](C(N)=O)C(C)C)[C@@H](C)O)C(C)C` [1–12], the midpoint of inhibition, the IC50, lay at 644 nM.

For the origin of these results see PMC2759517 (PLoS ONE, 2009).
